# Measurements as given in patent publication US9890152B2 (Genentech, Inc., priority 2012, dated 2018).
# Protein sequences, listed by entry. Tags and fused reporters are not part of them. Residues count along the entry.
# UniProt P00533, 25-1210 T790M/L858R limits assumed: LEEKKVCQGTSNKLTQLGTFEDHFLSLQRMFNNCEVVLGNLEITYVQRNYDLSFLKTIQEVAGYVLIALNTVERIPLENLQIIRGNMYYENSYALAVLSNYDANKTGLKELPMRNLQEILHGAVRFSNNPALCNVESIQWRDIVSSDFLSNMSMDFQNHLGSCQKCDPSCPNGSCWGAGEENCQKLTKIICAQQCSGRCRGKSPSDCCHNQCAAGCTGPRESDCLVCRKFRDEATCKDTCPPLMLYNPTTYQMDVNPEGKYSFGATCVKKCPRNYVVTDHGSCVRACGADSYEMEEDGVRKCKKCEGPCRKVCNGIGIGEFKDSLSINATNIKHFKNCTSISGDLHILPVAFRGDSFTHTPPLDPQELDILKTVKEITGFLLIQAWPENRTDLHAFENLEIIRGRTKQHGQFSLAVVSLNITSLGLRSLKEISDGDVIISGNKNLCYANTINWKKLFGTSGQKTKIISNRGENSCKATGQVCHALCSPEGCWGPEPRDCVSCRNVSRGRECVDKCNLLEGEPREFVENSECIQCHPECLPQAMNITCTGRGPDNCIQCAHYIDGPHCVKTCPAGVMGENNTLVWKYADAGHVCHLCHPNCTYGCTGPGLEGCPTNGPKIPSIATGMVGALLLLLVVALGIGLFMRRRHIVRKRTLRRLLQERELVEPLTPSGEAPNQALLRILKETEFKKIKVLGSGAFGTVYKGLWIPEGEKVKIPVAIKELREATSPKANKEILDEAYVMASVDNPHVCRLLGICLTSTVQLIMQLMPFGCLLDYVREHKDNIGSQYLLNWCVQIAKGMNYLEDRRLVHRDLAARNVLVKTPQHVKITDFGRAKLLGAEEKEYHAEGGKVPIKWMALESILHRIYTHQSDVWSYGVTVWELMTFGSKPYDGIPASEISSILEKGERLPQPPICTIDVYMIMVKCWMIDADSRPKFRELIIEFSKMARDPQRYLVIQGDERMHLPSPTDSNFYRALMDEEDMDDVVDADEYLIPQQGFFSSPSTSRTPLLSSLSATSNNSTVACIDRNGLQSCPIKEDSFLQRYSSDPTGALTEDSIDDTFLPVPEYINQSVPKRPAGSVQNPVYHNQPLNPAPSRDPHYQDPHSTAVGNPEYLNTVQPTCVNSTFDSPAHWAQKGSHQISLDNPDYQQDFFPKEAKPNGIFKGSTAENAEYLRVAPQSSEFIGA
# Molecular target: EGFR T790M L858R (Homo sapiens, UniProt P00533, L858R/T790M)
# Assay: biochemical
# Details: EGFR(T790M/L858R) Ki (μM), 5 μM ATP, 30 min, room temperature; apparent Ki (Morrison) converted by Cheng-Prusoff, Km of ATP 1.3 μM
row,Compound,Ki
1,"CC(C)n1cnc2cnc(Nc3ccnc(N4CC(NS(C)(=O)=O)C4)n3)cc21 [Example 75, N-(1-(4-(1-isopropyl-1H-imidazo[4,5-c]pyridin-6-ylamino)pyrimidin-2-yl)azetidin-3-yl)methanesulfonamide]",0.574 µM
2,CC(C)n1cnc2cnc(Nc3ccnc(N4CCCC(O)CC4)n3)cc21 (stereo not drawn) [Example 200],1.19 µM
3,"Cc1nc2cnc(Nc3ccnc(-c4cnn(S(=O)(=O)C5CNC(=O)C5)c4)n3)cc2n1C(C)C (stereo not drawn) [Example 465, 4-(4-(4-(1-isopropyl-2-methyl-1H-imidazo[4,5-c]pyridin-6-ylamino)pyrimidin-2-yl)-1H-pyrazol-1-ylsulfonyl)pyrrolidin-2-one]",0.00224 µM
4,CC(C)n1cnc2cnc(Nc3ccnc(N4CCC5OCCC5C4)n3)cc21 (stereo not drawn) [Example 194],0.216 µM
5,"COC1(CCO)CCN(c2nccc(Nc3cc4c(cn3)nc(C)n4C(C)C)n2)CC1 [Example 520, 2-{1-[4-(1-Isopropyl-2-methyl-1H-imidazo[4,5-c]pyridin-6-ylamino)pyrimidin-2-yl]-4-methoxypiperidin-4-yl}ethanol]",0.0509 µM
6,CC(C)n1cnc2cnc(Nc3ccnc(N4CCC(C(C)(C)C(N)=O)CC4)n3)cc21 [Example 158],0.452 µM
7,"Cc1n[nH]cc1-c1nccc(Nc2cc3c(cn2)nc(C)n3C(C)C)n1 [Example 399, 1-isopropyl-2-methyl-N-(2-(3-methyl-1H-pyrazol-4-yl)pyrimidin-4-yl)-1H-imidazo[4,5-c]pyridin-6-amine]",0.0604 µM
8,"CC(C)n1cc(-c2cnn(C3COC3)c2)c2cnc(Nc3ccnc(-c4cnn(S(=O)(=O)C5CC5)c4)n3)cc21 [Example 441, N-(2-(1-(cyclopropylsulfonyl)-1H-pyrazol-4-yl)pyrimidin-4-yl)-1-isopropyl-3-(1-(oxetan-3-yl)-1H-pyrazol-4-yl)-1H-pyrrolo[3,2-c]pyridin-6-amine]",0.00201 µM
9,"CC(C)n1cc(C2CC(=O)N(CCO)C2)c2cnc(Nc3ccnc(-c4cnn(S(=O)(=O)C5CC5)c4)n3)cc21 (stereo not drawn) [Example 460, 4-(6-(2-(1-(cyclopropylsulfonyl)-1H-pyrazol-4-yl)pyrimidin-4-ylamino)-1-isopropyl-1H-pyrrolo[3,2-c]pyridin-3-yl)-1-(2-hydroxyethyl)pyrrolidin-2-one]",0.0905 µM
10,CC(C)n1cnc2cnc(Nc3ccnc(N4CCC(F)(F)C4)n3)cc21 [Example 185],0.191 µM
11,"CC(C)n1cnc2cnc(Nc3ccnc(N4CC(O)C4)n3)cc21 [Example 146, 1-[4-(1-Isopropyl-1H-imidazo[4,5-c]pyridin-6-ylamino)pyrimidin-2-yl]azetidin-3-ol]",0.622 µM
12,"CCNC(=O)c1cn(C(C)CC)c2cc(Nc3ccnc(N4CC[C@@H](O)[C@@H](F)C4)n3)ncc12 (single isomer, unassigned) [Example 370]",0.00136 µM
13,CC(C)n1cnc2cnc(Nc3ccnc(N4CCC(CN)CC4)n3)cc21 [Example 220],0.843 µM
14,"CC(C)n1cc(C(=O)NC2CCC(C#N)CC2)c2cnc(Nc3ccnc(-c4cnn(S(=O)(=O)C5CC5)c4)n3)cc21 (stereo not drawn) [Example 252, N-(4-Cyanocyclohexyl)-6-((2-(1-(cyclopropylsulfonyl)-1H-pyrazol-4-yl)pyrimidin-4-yl)amino)-1-isopropyl-1H-pyrrolo[3,2-c]pyridine-3-carboxamide]",0.000205 µM
15,"Cc1nc2cnc(Nc3ccnc(N4CCC(C)(C(N)=O)C4)n3)cc2n1C(C)C (stereo not drawn) [Example 306, 1-[4-(1-Isopropyl-2-methyl-1H-imidazo[4,5-c]pyridin-6-ylamino)pyrimidin-2-yl]-3-methylpyrrolidine-3-carboxylic acid amide]",0.0664 µM
16,"CO[C@@H]1CCN(c2nccc(Nc3cc4c(cn3)nc(C)n4C(C)C)n2)C[C@H]1N (relative stereo) [Example 267, (trans)-[2-(3-Amino-4-methoxypiperidin-1-yl)pyrimidin-4-yl]-(1-isopropyl-2-methyl-1H-imidazo[4,5-c]pyridin-6-yl)amine]",0.193 µM
17,"Cc1nc2cnc(Nc3ccnc(NCC(C)(CO)C(N)=O)n3)cc2n1C(C)C (stereo not drawn) [Example 303, 2-Hydroxymethyl-3-[4-(1-isopropyl-2-methyl-1H-imidazo[4,5-c]pyridin-6-ylamino)pyrimidin-2-ylamino]-2-methylpropionamide]",0.179 µM
18,"COCc1nc2cnc(Nc3ccnc(-c4cnn(S(=O)(=O)C5CC5)c4)n3)cc2n1C(C)C [Example 279, [2-(1-Cyclopropanesulfonyl-1H-pyrazol-4-yl)-pyrimidin-4-yl]-(1-isopropyl-2-methoxymethyl-1H-imidazo[4,5-c]pyridin-6-yl)amine]",0.00663 µM
19,"Cc1nc2cnc(Nc3ccnc(NC(C)C(C)(C)C(N)=O)n3)cc2n1C(C)C (racemic) [Example 417, (±)-3-((4-((1-isopropyl-2-methyl-1H-imidazo[4,5-c]pyridin-6-yl)amino)pyrimidin-2-yl)amino)-2,2-dimethylbutanamide]",0.0441 µM
20,"Cc1nc2cnc(Nc3ccnc(N4CCc5[nH]ncc5C4)n3)cc2n1C(C)C [Example 46, N-(2-(6,7-Dihydro-1H-pyrazolo[4,3-c]pyridin-5(4H)-yl)pyrimidin-4-yl)-1-isopropyl-2-methyl-1H-imidazo[4,5-c]pyridin-6-amine]",0.0122 µM
21,"CC(C)n1cnc2cnc(Nc3ccnc(N4CCC(CN(C)C)CC4)n3)cc21 [Example 138, {1-[4-(1-isopropyl-1H-imidazo[4,5-c]pyridin-6-ylamino)pyrimidin-2-yl]piperidin-4-ylmethyl}dimethylamtnonium formate]",1.54 µM
22,CC(C)n1cnc2cnc(Nc3ccnc(N4CC5C(C4)C5C(N)=O)n3)cc21 (stereo not drawn) [Example 186],0.248 µM
23,"CCCC(C)n1c(CO)nc2cnc(Nc3ccnc(-c4cnn(S(=O)(=O)C5CC5)c4)n3)cc21 (stereo not drawn) [Example 265, (6-(2-(1-(Cyclopropylsulfonyl)-1H-pyrazol-4-yl)pyrimidin-4-ylamino)-1-(pentan-2-yl)-1H-imidazo[4,5-c]pyridin-2-yl)methanol]",0.00612 µM
24,"CC(C)n1cc(C(=O)NC2CCOC2)c2cnc(Nc3ccnc(-c4cnn(S(=O)(=O)C5CC5)c4)n3)cc21 (stereo not drawn) [Example 453, 6-(2-(1-(cyclopropylsulfonyl)-1H-pyrazol-4-yl)pyrimidin-4-ylamino)-1-isopropyl-N-(tetrahydrofuran-3-yl)-1H-pyrrolo[3,2-c]pyridine-3-carboxamide]",0.000489 µM
25,"Cc1cn(CCO)nc1-c1cn(C(C)C)c2cc(Nc3ccnc(-c4cnn(S(=O)(=O)C5CC5)c4)n3)ncc12 [Example 253, 2-(3-(6-(2-(1-(Cyclopropylsulfonyl)-1H-pyrazol-4-yl)pyrimidin-4-ylamino)-1-isopropyl-1H-pyrrolo[3,2-c]pyridin-3-yl)-4-methyl-1H-pyrazol-1-yl)ethanol]",0.00197 µM

# More lines, now with the values ahead:
row,Ki,Compound
1,0.0596 µM,"Cc1nc2cnc(Nc3ccnc(N4CC[C@@H](F)C4)n3)cc2n1C(C)C [Example 593, [2-((R)-3-Fluoropyrrolidin-1-yl)pyrimidin-4-yl]-(1-isopropyl-2-methyl-1H-imidazo[4,5-c]pyridin-6-yl)amine]"
2,0.0532 µM,"CC(C)n1c(CO)nc2cnc(Nc3ccnc(N4CC[C@@H](O)[C@H](C)C4)n3)cc21 (racemic) [Example 630, (±)-(trans)-1-(4-(2-(Hydroxymethyl)-1-isopropyl-1H-imidazo[4,5-c]pyridin-6-ylamino)pyrimidin-2-yl)-3-methylpiperidin-4-ol]"
3,0.0186 µM,"O=S(=O)(C1CC1)n1cc(-c2nccc(Nc3cc4c(cn3)nc(CO)n4CCC(F)(F)F)n2)cn1 [Example 483, (6-(2-(1-(cyclopropylsulfonyl)-1H-pyrazol-4-yl)pyrimidin-4-ylamino)-1-(3,3,3-trifluoropropyl)-1H-imidazo[4,5-c]pyridin-2-yl)methanol]"
4,0.0106 µM,CC1CC1n1c(CO)nc2cnc(Nc3ccnc(-c4cnn(S(=O)(=O)C5CC5)c4)n3)cc21 (stereo not drawn) [Example 698]
5,0.0608 µM,"Cc1nc2cnc(Nc3ccnc(N4CCC(S(C)(=O)=O)CC4)n3)cc2n1C(C)C [Example 545, (1-Isopropyl-2-methyl-1H-imidazo[4,5-c]pyridin-6-yl)-[2-(4-methanesulfonylpiperidin-1-yl)pyrimidin-4-yl]amine]"
6,0.0257 µM,"CC(C)CC(C)n1c(CO)nc2cnc(Nc3ccnc(-c4cnn(S(=O)(=O)C5CC5)c4)n3)cc21 (stereo not drawn) [Example 478, (6-(2-(1-(cyclopropylsulfonyl)-1H-pyrazol-4-yl)pyrimidin-4-ylamino)-1-(4-methylpentan-2-yl)-1H-imidazo[4,5-c]pyridin-2-yl)methanol]"
7,0.00558 µM,C[C@H](O)c1nc2cnc(Nc3ccnc(N4CC[C@@H](O)[C@@H](F)C4)n3)cc2n1[C@@H](C)C(F)(F)F [Example 685]
8,0.00264 µM,CCC(C)n1cc(C(=O)NCCO)c2cnc(Nc3ccnc(-c4cnn(S(=O)(=O)C5CC5)c4)n3)cc21 (stereo not drawn) [Example 703]
9,0.0609 µM,C[C@H](O)c1nc2cnc(Nc3ccnc(N4CC[C@H](O)[C@H](F)C4)n3)cc2n1[C@H](C)C(F)(F)F [Example 690]
10,0.0542 µM,"CO[C@H]1CCN(c2nccc(Nc3cc4c(cn3)nc(CO)n4C(C)C)n2)C[C@@H]1F (racemic) [Example 527, (±)-{6-[2-((trans)-3-Fluoro-4-methoxypiperidin-1-yl)pyrimidin-4-ylamino]-1-isopropyl-1H-imidazo[4,5-c]pyridin-2-yl}methanol]"
11,0.0372 µM,CC(C)n1c(CO)nc2cnc(Nc3ccnc(N4CC[C@@](C)(O)[C@H](F)C4)n3)cc21 [Example 675]
12,0.000779 µM,"CNc1nc(C)c(-c2nccc(Nc3cc4c(cn3)nc(CO)n4C(C)C)n2)s1 [Example 612, {1-Isopropyl-6-[2-(4-methyl-2-methylaminothiazol-5-yl)pyrimidin-4-ylamino]-1H-imidazo[4,5-c]pyridin-2-yl}methanol]"
13,0.027 µM,"Cc1nc2cnc(Nc3ccnc(N4CCC(F)CC4)n3)cc2n1C(C)C [Example 591, [2-(4-Fluoropiperidin-1-yl)pyrimidin-4-yl]-(1-isopropyl-2-methyl-1H-imidazo[4,5-c]pyridin-6-yl)amine]"
14,0.0239 µM,"CSC1CCN(c2nccc(Nc3cc4c(cn3)nc(C)n4C(C)C)n2)CC1 [Example 546, (1-Isopropyl-2-methyl-1H-imidazo[4,5-c]pyridin-6-yl)-[2-(4-methylsulfanylpiperidin-1-yl)pyrimidin-4-yl]amine]"

# Counter-ions that a name gives are not always drawn.
